Results from PMC11492202 (RSC Advances, 2024).

Chains of the proteins cited; added tags and fusions are not shown. Residues count along the entry.
UniProt P06873, 106-384: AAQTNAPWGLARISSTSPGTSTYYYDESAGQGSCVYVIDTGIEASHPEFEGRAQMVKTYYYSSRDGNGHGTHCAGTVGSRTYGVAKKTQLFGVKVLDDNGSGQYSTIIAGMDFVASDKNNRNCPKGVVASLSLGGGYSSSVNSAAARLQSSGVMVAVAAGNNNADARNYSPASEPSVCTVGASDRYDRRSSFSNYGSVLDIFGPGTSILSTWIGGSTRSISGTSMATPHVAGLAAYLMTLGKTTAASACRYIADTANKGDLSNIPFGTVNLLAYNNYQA

Biological target: Proteinase K (Parengyodontium album, UniProt P06873)
Assay: In vitro proteinase K inhibition assay
Format: biochemical, Tritirachium album Limber

## O=S(=O)(F)Cc1ccccc1 [Phenylmethyl sulfonyl fluoride, reference compound]
  IC50: 120 ± 14 nM
